SMILES strings stand for the structures.

Data on ten molecules can be found in patent US20110053897A1 (IRM LLC, priority 2009, published 2011).

The first assay deals with Syk kinase (Homo sapiens, UniProt P43405). The assay can be described thus: Syk kinase inhibition, Caliper LabChip off-chip mobility-shift kinase assay. Particulars: read-out: Syk Enzyme IC50. How it is done: Compounds of the examples and Table 1 provided herein were assayed to measure their capacity to inhibit Syk kinase.
Compounds of the examples and Table 1 provided herein were assessed for their ability to inhibit Syk kinase by utilizing Caliper Life Sciences' proprietary LabChip™ technology. The off-chip incubation mobility-shift kinase assay uses a microfluidic chip to measure the conversion of a fluorescent peptide substrate to a phosphorylated product. The reaction mixture, from a microtiter plate well, is introduced through a capillary sipper onto the chip, where the nonphosphorylated substrate and phosphorylated product are separated by electrophoresis and detected via laser induced fluorescence. […] The phosphorylated product migrates through the chip faster than the non-phosphorylated substrate, and signals from the two forms of the peptide appear as distinct peaks. Caliper's data analysis software (HTSWA) determines peak heights, from which the ratio of product to the peak sum P/(P+S) and percent (%) conversion is calculated. This value is used to compare compound wells to control wells present on the plate, and thereby determine the % inhibition values for the compound. The formula used to calculate % inhibition is as follows, where C100% is the average % conversion of the 100% activity wells and Co% is the average % conversion of the 0% activity wells: (1−(% conversionofsample−C0%)/(C100%−C0%))*100.
Compounds (10 mM stocks in 100% DMSO) are diluted to a final concentration of 5 μM for single point inhibition experiments, and a series dilution of 10, 3, 1, 0.3, 0.1, 0.03, 0.01, 0.003, 0.001, 0.0003, 0.0001, and 0.00003 μM were made for IC50 determination. Generally, 12 μL of enzyme buffer containing purified kinase (various amount; various suppliers), 100 mM HEPES, pH 7.5, 1 mM DTT (Calbiochem, 2333153), 10 mM MgCl2 (Sigma, M-1028) or 10 mM MnCl2 (Sigma, M-1787) (assay specific), and 0.002% Brij-35 (Sigma, B4184) are added to each well. Compound and enzyme are allowed to pre-incubate for 15 minutes. 12 μL of peptide/ATP buffer containing 100 mM HEPES, pH 7.5, 1.5 μM fluorescein-labeled peptide (specific to kinase of interest), ATP (at KM apparent, Sigma, A9187), and 0.002% Brij-35 is then added to each well to initiate the reaction. The final concentration of DMSO in the well is 4%. Generally, reactions are incubated for 1 to 1.5 hours at room temperature to obtain adequate conversion of peptide to phosphorylated product in the linear range of the reaction. Reactions are terminated with the addition of 45 μL of Stop Buffer (containing 20 mM EDTA). Plates are then read on the LabChip 3000 using a 12-sipper LabChip. % conversion values and % inhibition values are obtained as provided and IC50 curves of compounds are generated using GraphPad Prism Version 4 or 5.01, or XLfit Version 4.3.2. When using GraphPad Prism, a nonlinear curve fit using the sigmoidal dose response—variable slope fit was used to graph IC50 curves and determine IC50 values and hillslopes. When using XLfit, Fit Model 205 (4-Parameter Logistic Model) is used to generate and fit the IC50 curve.
The term IC50 denotes the concentration that gives 50% inhibition. Consider `Cc1ccnc(Nc2cc3cc[nH]c(=O)c3c(NC[C@H]3CCCO3)n2)c1`, for which the IC50 amounted to 83 nM.

For the molecule `Cc1ccnc(Nc2cc3ccn(C)c(=O)c3c(Nc3ccc(C4CCN(CCC#N)CC4)cc3)n2)c1`, the 50% inhibitory concentration (IC50) is 505 nM.

Take `COc1ccnc(Nc2cc3cc[nH]c(=O)c3c(NC3CC3)n2)c1`: the IC50 was 266 nM.

For the molecule `Nc1ncc(-c2cc3cc[nH]c(=O)c3c(NCCO)n2)cn1`, the IC50 was 86 nM.

Take `Cc1ccc(-c2cc3c(F)c[nH]c(=O)c3c(Nc3ccc(N4CCOCC4)cc3)n2)cn1`: the IC50 stood at 287 nM.

For `NC(=O)c1ccc(Nc2cc3cc[nH]c(=O)c3c(Nc3ccc(N4CCOCC4)cc3)n2)nc1`, the IC50 was 850 nM.

The assay is the same for the next values; noted with them: read-out: Syk Enzyme IC50; Caliper LabChip assay.
On to `CC(C)(C)Nc1nc(Nc2cc(C(C)(O)C(F)(F)F)ccn2)cc2ccn(CCO)c(=O)c12` (stereo not shown), for which the IC50 was found to be 131 nM.

For the molecule `O=c1[nH]ccc2cc(Nc3cnccn3)nc(NC3CC(F)(F)C3)c12`, the IC50 amounted to 27 nM.

On to `[2H]C([2H])([2H])C(O)c1ccnc(Nc2cc3ccn(CCO)c(=O)c3c(NC(C)(C)C)n2)c1` (stereo not shown), for which the IC50 was 17 nM.

Turning to `Cc1ccnc(Nc2cc3c(Cl)cn(C)c(=O)c3c(N[C@H]3CC[C@@H](O)CC3)n2)c1`, the IC50 turned out to be 113 nM.
